{
  "source": "paper PMC6730478",
  "about": "“Discovery of N-(2-Aminophenyl)-4-(bis(2-chloroethyl)amino)Benzamide as a Potent Histone Deacetylase Inhibitor” (Frontiers in Pharmacology, 2019)",
  "tested_on": "HepG2 cells",
  "test": "Cell cycle assay (PI staining, flow cytometry)",
  "assay_type": "cell-based",
  "conditions": "6 h, control 21.24%",
  "protocol": "Cells were then washed twice with cold phosphate-buffered saline (PBS) and fixed in 70% precooled ethanol at 4°C for 12 h. After the fixation, cells were washed again with PBS and stained with PI/RNase A for 30 min at room temperature and eventually subjected to flow cytometry (CytoFLEX, Beckman Coulter) for cell cycle distribution determination.",
  "data": [
    {"smiles": "O=C(CCCCCCC(=O)Nc1ccccc1)NO", "note": "[SAHA, Suberoylanilide hydroxamic acid, reference compound]", "values": [
      {"measurement": "HepG2 cells at the G2/M phase", "setting": "1 µM", "value": 23.98, "unit": "%"},
      {"measurement": "HepG2 cells at the G2/M phase", "setting": "3 µM", "value": 25.89, "unit": "%"},
      {"measurement": "HepG2 cells at the G2/M phase", "setting": "9 µM", "value": 27.02, "unit": "%"}
    ]}
  ]
}
